For orientation: Ki means the equilibrium dissociation constant of an inhibitor or competing ligand from its target. A high value points to weaker binding.

By UniProt entry, the sequences of proteins in these tests, tags left out.
UniProt P41143, whole entry, looked up: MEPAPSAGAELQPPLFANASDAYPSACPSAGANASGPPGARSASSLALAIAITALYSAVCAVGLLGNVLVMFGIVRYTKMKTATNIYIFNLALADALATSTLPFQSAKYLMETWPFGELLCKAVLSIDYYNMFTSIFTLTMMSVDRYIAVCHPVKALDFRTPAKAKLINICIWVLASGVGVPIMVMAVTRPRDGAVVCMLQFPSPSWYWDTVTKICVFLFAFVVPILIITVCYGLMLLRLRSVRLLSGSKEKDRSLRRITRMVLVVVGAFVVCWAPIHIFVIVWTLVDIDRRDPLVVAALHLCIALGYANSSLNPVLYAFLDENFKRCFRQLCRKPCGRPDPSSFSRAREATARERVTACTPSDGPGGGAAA

For 1 compound, Ki results are on record in BindingDB's records for 1652025 (Zambeletti Research Laboratories, 1991).

In the experiment the target is Delta-type opioid receptor (Homo sapiens, UniProt P41143). Nature of the experiment: ChEBML_146436. An excerpt: Affinity for opioid receptor delta sites

With `CN(C(=O)Cc1ccc(Cl)c(Cl)c1)[C@@H]1CCCC[C@H]1N1CCCC1`, the inhibition constant (Ki) is > 10 µM.
